Assay results published in US20230301939A1, “NOVEL FO[…]” (Neurocentrx Pharma Ltd., priority 2018, published 2023).

Test: API degradation in presence of excipients on storage
Conditions: 4 weeks at 40° C./75% RH; PEG1500, PEG6000, Gelucire 44/14, Poloxamer 124, kolliphor RH40, Kolliphor EL, Polysorbate 20/80, Miglyol 812N

In the case of `CNC1(c2ccccc2Cl)CCCCC1=O` (stereo not shown) [Ketamine, ketamine], the “Stability of API in presence of selected excipients” value is reported as “Degradation”.
